In patent US11254667B2 (priority 2016, dated 2022):

Molecular target: CDK7/cyclin H (Homo sapiens (Human), UniProt P50613)
Conditions: read-out: IC50 CDK7/cyclin H

CC1(COc2ccc3c(c2)ncn3-c2ccc3cccc(N4CCC(N)CC4)c3n2)COC1 [Crenolinib, reference compound]
IC50: 1.26 µM
